This passage reports AC40 results from PubChem BioAssay AID493238 (Broad Institute, 2011).

Structures are written as SMILES.

The test system of the assay is U2OS VEGF mRNA induction, RT-PCR. Put plainly: activators raising VEGF transcript levels – cell-based, U2OS, RT-PCR, dry powder, set 2, orthogonal assay for HIF pathway activator project, dose response (AID 493238). The method in brief:
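Test system – human U2OS osteosarcoma cells, endogenous VEGF-A mRNA · Quantity – 2,000 U2OS cells per well · Incubation – 24 h pre-growth at 37 °C, 24 h compound treatment · Measured by – duplex TaqMan RT-qPCR (FAM VEGF-A, VIC beta-actin), 40 cycles, post-lysis · Benchmarks – DMSO as negative control · Replicates – duplicate compound pinning per dose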

For `O=c1[nH]c2ccccc2n1C1CCN(Cc2ccc(O)c3ncccc23)CC1`, the AC40 was 892 nM.
